Results from patent EP4821927A1, “BENZO HETEROCYCLIC COMPOUND AND USE THEREOF” (dated 2026).

Chains of the proteins cited; added tags and fusions are not shown.
UniProt O14842, whole entry: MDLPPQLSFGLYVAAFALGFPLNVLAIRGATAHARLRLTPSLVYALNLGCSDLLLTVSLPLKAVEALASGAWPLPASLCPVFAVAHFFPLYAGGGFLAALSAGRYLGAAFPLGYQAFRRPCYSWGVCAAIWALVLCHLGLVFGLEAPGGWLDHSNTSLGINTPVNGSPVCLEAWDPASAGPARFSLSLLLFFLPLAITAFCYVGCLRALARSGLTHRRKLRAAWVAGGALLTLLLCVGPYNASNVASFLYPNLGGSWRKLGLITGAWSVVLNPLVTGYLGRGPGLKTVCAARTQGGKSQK

Biological target: human FFAR1(GPR40) (Homo sapiens, UniProt O14842)
Assay: NFAT-RE reporter gene activity assay (Dual-Glo luciferase) for in vitro agonist activity on GPR40 in co-transfected HEK293T cells
Conditions: read-out: Nuclear factor of activated T-cells reporter gene activity assay (NFAT reporter assay) EC50; HEK293T cells co-transfected with GPR40, NFAT-RE and pRL-TK plasmids; 4-hour treatment; highest concentration 1 µM

| Compound | EC50 [nM] |
| --- | --- |
| COc1cccc(N2CCC(c3oc4cc([C@@H](CC(=O)O)C5CC5)ccc4c3C(=O)Oc3ccccc3OC(F)(F)F)CC2)c1 | 1 to 10 |
| CC(C)(C)OC(=O)c1c(C2CCN(c3ccccc3F)CC2)oc2cc([C@@H](CC(=O)O)C3CC3)ccc12 | 1 to 10 |
| COc1cccc(C2=CCC(c3oc4cc([C@@H](CC(=O)O)C5CC5)ccc4c3C(=O)OCC(C)C)CC2)c1 (stereo partly shown) | 1 to 10 |
| COc1cccc(N2CCC(c3oc4cc([C@@H](CC(=O)O)C5CC5)ccc4c3C(=O)Oc3cc(C4CCCCC4)ccc3F)CC2)c1 | 10 to 100 |
| COc1cccc(N2CCC(c3oc4cc([C@@H](CC(=O)O)C5CC5)ccc4c3C(=O)Oc3cc(CCc4ccccc4)ccc3F)CC2)c1 | 1 to 10 |
| COc1cccc(N2CCC(c3oc4cc([C@@H](CC(=O)O)C5CC5)ccc4c3C(=O)OC(C)C)CC2)c1 | 10 to 100 |
| CC(C)(C)OC(=O)c1c(C2CCN(c3ccccc3Cl)CC2)oc2cc([C@@H](CC(=O)O)C3CC3)ccc12 | 1 to 10 |
| COc1cccc(N2CCC(c3oc4cc([C@H](C5CC5)C(C)C(=O)O)ccc4c3C(=O)OC(C)(C)C)CC2)c1 (stereo partly shown) | < 1 |
| COc1cccc(N2CCC(c3oc4cc([C@@H](CC(=O)O)C5CC5)ccc4c3C(=O)OC3(Cc4ccccc4)CC3)CC2)c1 | 1 to 10 |
| COc1cccc(C2=CCC(c3oc4cc([C@@H](CC(=O)O)C5CC5)ccc4c3C(=O)OCc3ccccc3)CC2)c1 (stereo partly shown) | > 100 |
| COc1cccc(N2CCC(c3oc4cc([C@@H](CC(=O)O)C5CC5)ccc4c3C(=O)Oc3ccc(F)cc3)CC2)c1 | 10 to 100 |
| COc1cccc(N2CCC(c3oc4cc([C@@H](CC(=O)O)C5CC5)ccc4c3C(=O)OC(C)c3ccccn3)CC2)c1 (stereo partly shown) | 10 to 100 |
| CCCOC(=O)c1c(C2CCN(c3cccc(OC)c3)CC2)oc2cc([C@@H](CC(=O)O)C3CC3)ccc12 | 1 to 10 |
| COc1cccc(N2CCC(c3oc4cc([C@@H](CC(=O)O)C5CC5)ccc4c3C(=O)OC(C)(C)C)CC2)c1F | < 1 |
| COc1cccc(N2CCC(c3oc4cc([C@@H](CC(=O)O)C5CC5)ccc4c3C(=O)O[C@@H](C)c3ccccc3)CC2)c1 | 10 to 100 |
| COc1cccc(N2CCC(c3oc4cc([C@@H](CC(=O)O)C5CC5)ccc4c3C(=O)OC(C)(C)c3ccccc3)CC2)c1 | > 100 |
| COc1cccc(N2CCC(c3oc4cc([C@@H](CC(=O)O)C5CC5)ccc4c3C(=O)OCC(C)(C)C)CC2)c1 | < 1 |
| COc1cccc(N2CCC(c3oc4cc([C@@H](CC(=O)O)C5CC5)ccc4c3C(=O)OC(C(F)(F)F)(C(F)(F)F)C(F)(F)F)CC2)c1 | < 1 |
| COc1cccc(N2CCC(c3oc4cc([C@@H](CC(=O)O)C5CC5)ccc4c3C(=O)OC3(C(C)(C)c4ccccc4)CC3)CC2)c1 | 1 to 10 |
| CCCCOC(=O)c1c(C2CCN(c3cccc(OC)c3)CC2)oc2cc([C@@H](CC(=O)O)C3CC3)ccc12 | 1 to 10 |
| COc1cccc(N2CCC(c3oc4cc([C@@H](CC(=O)O)C5CC5)ccc4c3C(=O)Oc3cc(Cc4ccccc4)ccc3F)CC2)c1 | 1 to 10 |
| CC(C)(C)OC(=O)c1c(C2CCN(c3ccc4c(c3)OCO4)CC2)oc2cc([C@@H](CC(=O)O)C3CC3)ccc12 | < 1 |
| CC(C)(C)OC(=O)c1c(C2CCN(c3cccc(OC(F)(F)F)c3)CC2)oc2cc([C@@H](CC(=O)O)C3CC3)ccc12 | > 100 |
| COc1cccc(N2CCC(c3oc4cc([C@@H](CC(=O)O)C5CC5)ccc4c3C(=O)OCC=C(C)C)CC2)c1 | 1 to 10 |

Other lines, results leading:

| EC50 [nM] | Compound |
| --- | --- |
| 1 to 10 | COc1cccc(N2CCC(c3oc4cc([C@@H](CC(=O)O)C5CC5)ccc4c3C(=O)Oc3ccccc3C(F)(F)F)CC2)c1 |
| 10 to 100 | COC(=O)c1c(C2CCN(c3cccc(OC)c3)CC2)oc2cc([C@@H](CC(=O)O)C3CC3)ccc12 |
| 10 to 100 | CCOC(=O)c1c(C2CCN(c3cccc(OC)c3)CC2)oc2cc([C@@H](CC(=O)O)C3CC3)ccc12 |
| 10 to 100 | CCCCCCCCCCCCOC(=O)c1c(C2CCN(c3cccc(OC)c3)CC2)oc2cc([C@@H](CC(=O)O)C3CC3)ccc12 |
| 1 to 10 | CCCCCCOC(=O)c1c(C2CCN(c3cccc(OC)c3)CC2)oc2cc([C@@H](CC(=O)O)C3CC3)ccc12 |
| 1 to 10 | COc1cccc(N2CCC(c3oc4cc([C@@H](CC(=O)O)C5CC5)ccc4c3C(=O)OCc3ccccc3)CC2)c1 |
| 1 to 10 | CCCCCOC(=O)c1c(C2CCN(c3cccc(OC)c3)CC2)oc2cc([C@@H](CC(=O)O)C3CC3)ccc12 |
| 1 to 10 | COc1cccc(N2CCC(c3oc4cc([C@@H](CC(=O)O)C5CC5)ccc4c3C(=O)OC3(C)CC3)CC2)c1 |
| > 1000 | COc1cccc(N2CCC(c3oc4cc([C@@H](CC(=O)O)C5CC5)ccc4c3C(=O)O)CC2)c1 |
| 1 to 10 | COc1cccc(N2CCC(c3oc4cc([C@@H](CC(=O)O)C5CC5)ccc4c3C(=O)Oc3ccccc3Cl)CC2)c1 |
| 10 to 100 | CC(C)(C)OC(=O)c1c(C2CCN(c3cccc(C(F)(F)F)c3)CC2)oc2cc([C@@H](CC(=O)O)C3CC3)ccc12 |
| < 1 | COc1cccc(N2CCC(c3oc4cc([C@@H](CC(=O)O)C5CC5)ccc4c3C(=O)OC(C)(C)C)CC2)c1 |
| > 100 | C=C(C)COC(=O)c1c(C2CCN(c3cccc(OC)c3)CC2)oc2cc([C@@H](CC(=O)O)C3CC3)ccc12 |
| 1 to 10 | COc1cccc(N2CCC(c3oc4cc([C@@H](CC(=O)O)C5CC5)ccc4c3C(=O)Oc3ccccc3F)CC2)c1 |
| < 1 | COc1cccc(N2CCC(c3oc4cc([C@@H](CC(=O)O)C5CC5)ccc4c3C(=O)OC(C)(C(F)(F)F)C(F)(F)F)CC2)c1 |
| 1 to 10 | COc1ccc(F)c(N2CCC(c3oc4cc([C@@H](CC(=O)O)C5CC5)ccc4c3C(=O)OC(C)(C)C)CC2)c1 |
| 1 to 10 | COc1cccc(N2CCC(c3oc4cc([C@@H](CC(=O)O)C5CC5)ccc4c3C(=O)OCC(C)C)CC2)c1 |
| 10 to 100 | CCCCCCCCOC(=O)c1c(C2CCN(c3cccc(OC)c3)CC2)oc2cc([C@@H](CC(=O)O)C3CC3)ccc12 |
| 1 to 10 | COc1cccc(N2CCC(c3oc4cc([C@@H](CC(=O)O)C5CC5)ccc4c3C(=O)OC3(c4ccccc4)CC3)CC2)c1 |
| 1 to 10 | COc1cccc(N2CCC(c3oc4cc([C@@H](CC(=O)O)C5CC5)ccc4c3C(=O)Oc3ccccc3OC)CC2)c1 |
| 1 to 10 | COc1cccc(N2CCC(c3oc4cc([C@@H](CC(=O)O)C5CC5)ccc4c3C(=O)O[C@H](C)c3ccccc3)CC2)c1 |
| < 1 | COc1cccc(N2CCC(c3oc4cc([C@H](C5CC5)C(F)C(=O)O)ccc4c3C(=O)OC(C)(C)C)CC2)c1 (stereo partly shown) |
